Screening data (PubChem)
G9a inh = G9a (human) methyltransferase inhibition; Q96KQ7; G9a H3K9 monomethylation, AlphaScreen, 2 h; Potency, µM (top dose mostly 102 µM), most hits filed as inhibitors; 350,000 compounds, 8.8% hits; also: nearly all actives have a fitted effect of over 75% in size
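G9a (20 nM) was preincubated 15 min with compound, then reacted 2 h at room temperature with 500 nM biotin-H3K9 peptide and 20 µM SAM. Monomethyl-H3K9 detected by AlphaScreen using anti-H3K9me1 antibody.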
Lamin A splicing = modulators of lamin A splicing; HeLa LMNA splicing GFP/RFP minigene ratio, 48 h; 200,000 compounds, 0.01% hits; Potency, µM (top dose mostly 46.1 µM), actives largely listed as inhibitors; active = well fitted inhibition curve with a large enough effect in the signal ratio, with a control signal flat, not every such curve was filed as active; inconclusive = small, poorly fitted or top-dose-only effect, or effect the other way, or a change in a side signal; the % refers to the signal ratio
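S3 HeLa stable clones carrying a lamin A-EGFP splicing minigene plus DsRed2 were seeded at 600 cells/well in Opti-MEM with 2% FBS, pin-dosed and incubated 48 h at 37°C. Acumen cytometry (488 nm) gave the GFP/RFP total-intensity ratio.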
ALDH1A1 block = blocks purified human ALDH1A1 activity. P00352. Purified ALDH1A1, NADH fluorescence, propionaldehyde substrate. Potency, µM (highest dose often 75.3 µM), usual class: inhibitors. 220,000 compounds, 7.3% hits. AID 1030; active = well fitted inhibition curve with a large enough effect, not every such curve was filed as active; inconclusive = small, poorly fitted or top-dose-only effect, or another doubt; inactive = no such curve, though single readings can be large or run the other way
Sfp PPTase inh = blocks B. subtilis Sfp PPTase activity. Q9F4F7. Biochemical Sfp PPTase activity, qHTS. Potency, µM, actives largely listed as inhibitors. 310,000 compounds, 3.5% hits;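 also: the enzyme is Sfp with the accession as filed and its product quenches rhodamine fluorescence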
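Step 1, compound plus 15 nM Sfp-PPTase, 15 min, room temperature. Step 2, add rhodamine-CoA (5 uM) and BHQ-2-YbbR (12.5 uM). Step 3, read 525/598 nm fluorescence at 0 and 30 min.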
miR-21 reporter = miR-21 reporter, rising signal | HeLa miR-21 FLuc reporter, luciferase, 48 h | Potency, µM (doses to about 38.3 µM) | 340,000 tested, under 10 active | AID 2288; active = well fitted rising curve with a large enough effect; inconclusive = small, poorly fitted or top-dose-only effect; inactive = no such curve, though single readings can be large or run the other way;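 note: miR-21 action dims this reporter so a rising signal means less miR-21 action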
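Luminescence from a firefly luciferase reporter carrying a miR-21 binding site downstream, stably expressed under a CMV promoter in HeLa cells that make miR-21 endogenously, reports miRNA modulation after 48 h compound exposure up to approximately 40uM final.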
KDM4E inh = inhibitors of human JMJD2E histone demethylase; JMJD2E catalytic domain, FDH-coupled NADH fluorescence (FDH is formaldehyde dehydrogenase); Potency, µM (highest dose often 57.1 µM), usual class: inhibitors; 230,000 compounds, 1.6% hits; AID 2147; active = well fitted inhibition curve with a large enough effect, not every such curve was filed as active; inconclusive = small, poorly fitted or top-dose-only effect, or another doubt; inactive = no such curve, though single readings can be large or run the other way; also: nearly all actives have a fitted effect of over 50% in size
A number is an active result; n = inactive; u = inconclusive; x = no result given; [ ] = another dose, or the depositor's remark. Rows were chosen to be rich in hits. Some 13% of all compounds tested hit in one or more screens of this group. Unless noted, calls follow the shape of the dose curve; as a rule, active = well fitted curve in the direction sought with a large enough effect; inconclusive = small, poorly fitted or top-dose-only effect, or another doubt; inactive = no such curve, though single readings can be large; an effect the other way counts as inactive or inconclusive.

SMILES	G9a inh	Lamin A splicing	ALDH1A1 block	Sfp PPTase inh	miR-21 reporter	KDM4E inh
COc1cc(CN(C(=O)COc2ccc(Cl)c(C)c2)c2ccccn2)cc(OC)c1OC	n	n	x	x	n	x
COc1cc(/C=N/n2c(COc3ccccc3)n[nH]c2=S)cc(OC)c1OC(C)=O	10µM	x	x	u	n	x
COC(=O)c1ccc(NC(=O)CN2CCCC2)cc1	n[12.7 µM]	n	n	n	n	n
CCOc1ccc(NC(=O)CN2CCN(CC(=O)Nc3ccc(C(=O)OC)cc3)CC2)cc1	32µM	n	7.1µM	n	n	n
CCOc1ccc(NC(=O)CN2CCN(CC(=O)Nc3ccc(F)c(F)c3)CC2)cc1	u	n	4µM	n	n	n
COC(=O)C1=C(C(=O)OC)[C@@H]2Nc3ccccc3[C@@]23C[C@@H](C(=O)OC)N(S(=O)(=O)c2ccc(Br)cc2)C3=N1	x	n[9.22 µM]	n[13.5 µM]	n	x	n[11.4 µM]
CN(C)N=Nc1ccc(-c2cn(Cc3ccccc3)cn2)cc1	x	x	x	n	n	x
CCCOc1ccc(-c2cc(C(F)(F)F)c(C#N)c(SCCC(=O)O)n2)cc1	n	x	x	x	n	x
O=C(NC(=S)NNC(=O)c1ccccc1O)c1cccnc1	13µM	x	u	n	n	20µM
O=C(NNC(=S)NC(=O)c1cccnc1)c1ccc(Cl)cc1	22µM	n	u	n	n	n
O=C(NC(=S)NNC(=O)c1ccc(Cl)cc1Cl)c1cccnc1	2.2µM	u	24µM	45µM	n	n
O=C(NC(=S)Nc1ccccc1O)c1cccnc1	n[0.501 µM]	x	x	n	n	x
O=C(NC(=S)Nc1ccccc1N1CCCCC1)c1ccccc1	32µM	u	19µM	n	n	n
Cc1ccccc1C(=O)NC(=S)Nc1ccccc1N1CCCC1	20µM	u	25µM	n	n	n
O=C(NC(=S)Nc1ccccc1N1CCCC1)c1ccc(F)cc1	32µM	x	7.5µM	u	n	n
COc1ccccc1C(=O)NC(=S)Nc1ccccc1N1CCCC1	u	x	x	n	n	x
CC1CCN(c2ccccc2NC(=S)NC(=O)C(C)(C)C)CC1	u	x	1.3µM	n	n	n
COc1ccc(C(=O)Nc2ccc(C(=O)OCc3cc(=O)n4nc(C(C)C)sc4n3)cc2)cc1	n[12.7 µM]	n	x	x	n	x
C#CCn1c(C2CC(=O)N(c3ccc(OC)cc3)C2)nc2ccccc21 (stereo not drawn)	n	x	x	x	n	x
Cc1csc2nc(COC(=O)c3ccc(F)cc3)cc(=O)n12	n	n	x	x	n	x
c1ccc2c(CN3CCCCC3)csc2c1	n	n	n	n	n	n
Fc1cccc(F)c1-n1c(CN2CCCC2)csc1=S	n	n	22µM	n	n	n
O=C(Nc1nc(=O)c2ccccc2s1)c1ccc(F)cc1	1.8µM	n	u	56µM	n	u
O=C(Nc1nc(=O)c2ccccc2s1)c1ccc(Cl)cc1	4µM	n	u	25µM	n	n
O=C(Cc1ccccc1)Nc1nc(=O)c2ccccc2s1	25µM	n	u	u	n	n
SMILES	G9a inh	Lamin A splicing	ALDH1A1 block	Sfp PPTase inh	miR-21 reporter	KDM4E inh
O=C(Cc1ccccc1)Nc1nc2ccccc2s1	n	n	n	n	n	n
Cn1sc(NC(=O)c2ccc(Cl)cc2)nc1=O	40µM	n	22µM	56µM	n	n
Cc1ccc(NC(=O)Cn2c(=O)n(CCCC(=O)NCc3ccc4c(c3)OCO4)c(=O)c3ccccc32)cc1	n	x	x	x	n	x
O=C(CSC(=S)N1CCOCC1)Nc1nccs1	n	x	x	n	n	n
O=C(CSC(=S)N1CCOCC1)Nc1nc(=O)c2ccccc2s1	4µM	n	6.3µM	79µM	n	n
C[C@H]1/C=C\CC(=O)OC[C@H](C)C(=O)N2CCC[C@@H]2C(=O)OC1	x	x	n[13.5 µM]	n	x	x
CC(=O)c1ccc(NC(=O)COCc2cc(-c3ccco3)on2)cc1	n	n	x	x	n	x
CN(CC(=O)Nc1cccc(F)c1)CC(=O)Nc1ccccc1Oc1ccccc1	8.9µM	x	x	u	n	x
COc1ccc(Cl)cc1NC(=O)CN(C)CC(=O)Nc1ccccc1-c1ccccc1	n	n	u	n	n	u
CN(CC(=O)Nc1ccccc1Br)CC(=O)Nc1ccccc1-c1ccccc1	n[12.7 µM]	x	x	x	x	x
Cc1ccc(NC(=O)CN(C)CC(=O)Nc2ccccc2-c2ccccc2)cc1	n	u	14µM	n	n	n
CCN(CC(=O)Nc1cccc(F)c1)CC(=O)Nc1ccccc1OC	n	x	x	n	n	x
COc1cccc(NC(=O)CN(C)CC(=O)Nc2ccccc2-c2ccccc2)c1	14µM	n	u	n	n	u
COc1cc(OC)cc(C(=O)NCC(=O)N2CC=C(c3ccccc3)CC2)c1	50µM	x	x	x	x	x
NNc1ccccc1C(F)(F)F	2.8µM	n	18µM	n	n	n
O=C(CN(C(=O)c1csnn1)c1ccccc1)NCCc1ccccc1	n	x	x	n	n	x
CNCCCC1Sc2ccccc2Oc2ccccc21 (stereo not drawn)	7.9µM	n	n	n	n	u
COC(=O)c1scc(-c2ccc(C)cc2)c1S(=O)(=O)N1CCN(c2ccccc2)CC1	n	u	x	x	n	x
CCOC(=O)c1scc(-c2ccccc2)c1S(=O)(=O)N1CCN(c2ccc(Cl)cc2)CC1	13µM	n	x	x	n	x
N=c1c2c(ncn1Cc1ccco1)Oc1c(ccc3ccccc13)C2c1ccccc1 (stereo not drawn)	n[2.33 µM]	u	n	50µM	n	u
CC1CN(c2nnc(NC(=O)c3ccccc3)s2)CC(C)O1 (stereo not drawn)	56µM	n	u	n	n	n
O=C(Nc1nnc(-c2ccco2)s1)c1ccccc1	u	n	25µM	45µM	n	u
O=C(Nc1nnc(-c2ccco2)s1)C1CCN(S(=O)(=O)c2ccc(Cl)cc2)CC1	n	n	u	n	n	u
O=C(Nc1nnc(-c2ccco2)s1)C1CC1	50µM	n	u	n	n	u
CCn1cc(C(=O)Nc2ccc(C(C)C)cc2)c2cc(OC)c(OC)cc2c1=O	n	x	x	x	u	x
SMILES	G9a inh	Lamin A splicing	ALDH1A1 block	Sfp PPTase inh	miR-21 reporter	KDM4E inh
CCOC(=O)C1CCCCN1Cc1ccc(OC)c(OC)c1 (stereo not drawn)	32µM	x	x	n	n	u
CCOC(=O)C1CCCCN1Cc1ccc(F)c(Br)c1 (stereo not drawn)	22µM	n	u	63µM	n	u
COc1cccc(CN2CCCCC2C(=O)O)c1 (stereo not drawn)	n	n[9.22 µM]	n	n	n	n
COc1ccc(CN2CCCCC2C(=O)Nc2ccc(OC)c(OC)c2)cc1OC (stereo not drawn)	n	n	n	n	n	n
CCC1CCCCN1Cc1ccc(OC)c(C)c1 (stereo not drawn)	50µM	n	u	n	n	n
COc1ccc(CCNC(=O)CSc2nc(-c3ccc(F)cc3)cc(C(F)(F)F)n2)cc1OC	n	x	x	x	n	x
CCN(CC)C(=O)c1sc2[nH]c(=S)n(-c3ccccc3)c(=O)c2c1C	n[0.501 µM]	n[0.0737 µM]	u	79µM	n	n
Cc1cc(NC(=O)c2c(C)noc2C)no1	x	x	n	n	n	n
